In publication PMC4494010 (The Journal of Cell Biology, 2015):

Assays:
CENP-C^[…] = CENP-C^[…] (human); test: cross-linking
GST–CENP-C^[…] = GST–CENP-C^[…] (human); test: pull-down

B1: CENP-HK complex (complex, human)
chain 1: MEEQPQMQDADEPADSGGEGRAGGPPQVAGAQAACSEDRMTLLLRLRAQTKQQLLEYKSMVDASEEKTPEQIMQEKQIEAKIEDLENEIEEVKVAFEIKKLALDRMRLSTALKKNLEKISRQSSVLMDNMKHLLELNKLIMKSQQESWDLEEKLLDIRKKRLQLKQASESKLLEIQTEKNKQKIDLDSMENSERIKIIRQNLQMEIKITTVIQHVFQNLILGSKVNWAEDPALKEIVLQLEKNVDMM
chain 2: MNQEDLDPDSTTDVGDVTNTEEELIRECEEMWKDMEECQNKLSLIGTETLTDSNAQLSLLIMQVKCLTAELSQWQKKTPETIPLTEDVLITLGKEEFQKLRQDLEMVLSTKESKNEKLKEDLEREQRWLDEQQQIMESLNVLHSELKNKVETFSESRIFNELKTKMLNIKEYKEKLLSTLGEFLEDHFPLPDRSVKKKKKNIQESSVNLITLHEMLEILINRLFDVPHDPYVKISDSFWPPYVELLLRNGIALRHPEDPTRIRLEAFHQ
binding result (CENP-C^[…]): binds
binding result (GST–CENP-C^[…]): binds
